Curated experimental data: intrinsic clearance values

From the experimental data distributed with OPERA 2.9.

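The numbers are reported measurements, compiled and curated for the OPERA QSAR suite. The files give a single number for a compound and property, which may rest on several reports. Conditions of the individual experiments are not part of the data. A value may pool stereoisomers or salt forms, and the file does not say which form was measured. Some upstream entries may be estimates or bounds without being marked so.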

Intrinsic clearance (human, µL/min per 10^6 hepatocytes): higher is faster turnover, and 0 stands for none detected.

compound	hepatic Clint (µL/min/10^6 cells)
CCON=C(CC)C1=C(O)CC(c2c(C)cc(C)cc2C)CC1=O (stereo unspecified)	0
C[C@@H]1[C@@H](c2ccc(Cl)cc2)SC(=O)N1C(=O)NC1CCCCC1	110.4
CCc1cccc(C)c1N(C(=O)CCl)C(C)COC (stereo unspecified)	35.37
Nc1c(Cl)cc([N+](=O)[O-])cc1Cl	4.43
CCCCOC(=O)c1ccccc1C(=O)O	0.74
CCOC(=O)C(O)(c1ccc(Cl)cc1)c1ccc(Cl)cc1	477
COCC(C)N(C(=O)CCl)c1c(C)csc1C (stereo unspecified)	19.92
Cc1ccccc1CO[C@H]1C[C@]2(C(C)C)CC[C@@]1(C)O2	28.17
CCCOc1nn(C(=O)[N-]S(=O)(=O)c2ccccc2C(=O)OC)c(=O)n1C.[Na+]	0.91
Cc1cnc(C2=NC(=O)C(C)(C(C)C)N2)c(C(=O)O)c1 (stereo unspecified)	0
C=CCl	29.17
Clc1ccccc1-c1nnc(-c2ccccc2Cl)nn1	0
CNC(=O)N(C)c1nnc(C(C)(C)C)s1	5.28
O.O=P1(N(CCCl)CCCl)NCCCO1 (stereo unspecified)	0
Fc1ccc(C2(Cn3cncn3)OC2c2ccccc2Cl)cc1 (stereo unspecified)	0
CCOP(=S)(NC(C)C)Oc1ccccc1C(=O)OC(C)C (stereo unspecified)	158
CC(C)C1(C)N=C(c2ncccc2C(=O)O)NC1=O (stereo unspecified)	0.39
CC(C)N(Cc1ccccc1)C(=O)C(C)(C)C	9.846
OC(c1ccc(Cl)cc1)(c1ccc(Cl)cc1)C(Cl)(Cl)Cl	27.8
O=[N+]([O-])c1ccccc1	8.168
CC(C)c1ccc(NC(=O)N(C)C)cc1	0
Clc1ccccc1	174.1
CCCCCCCCCCCCN(C)C	34.2
CCC(C)=O	10.07
CCCCNC(=O)OCC#CI	486
CC(C)C1CCC(Cc2ccc(Cl)cc2)C1(O)Cn1cncn1 (stereo unspecified)	101
C#CCOS(=O)OC1CCCCC1Oc1ccc(C(C)(C)C)cc1 (stereo unspecified)	24
CNC(=O)ON=CC(C)(C)SC	0.75
OCCOc1ccccc1	17.89
CCOC(=O)COc1cc(-c2nn(C)c(OC(F)F)c2Cl)c(F)cc1Cl	71.6
CC(c1ccc(O)cc1)c1ccc(O)cc1	119
O=[N+]([O-])c1ccc(Cl)c(Cl)c1	387
ClC1=C(Cl)C2(Cl)C3C(Cl)C=CC3C1(Cl)C2(Cl)Cl (stereo unspecified)	4.574
CCCOC(=O)c1ccccc1C(=O)OCCC	858
FC(F)(F)Br	1
COc1cc(OC)nc(Sc2cccc(Cl)c2C(=O)[O-])n1.[Na+]	0
CCNc1nc(Cl)nc(NCC)n1	6.33
CCCCC(CC)COC(=O)CCCCC(=O)OCC(CC)CCCC (stereo unspecified)	13.56